{
  "source": "patent US20240294541A1",
  "about": "“COMPOUNDS CONSTITUTING C20-MODIFIED SALINOMYCIN DERIVATIVES, A METHOD FOR OBTAINING THE SAME, A COMPOSITION CONTAINING THE SAME AND A USE OF SAID COMPOUNDS” (FILECLO SPOLKA Z OGRANICZONA ODPOWIEDZIALNOSCIA, priority 2021, published 2024)",
  "key": {"[1]": {"system": "A2780Cis (cisplatin-resistant human ovarian cancer)", "test": "In vitro cytotoxicity, SRB assay, A2780Cis", "type": "cell-based", "details": "Table 5"}, "[2]": {"system": "NCI-H1581 (human lung cancer)", "test": "In vitro cytotoxicity, SRB assay, NCI-H1581", "details": "Table 5; selectivity coefficient vs normal BALB/3T3 fibroblasts"}, "[3]": {"system": "MV-4-11 (human biphenotypic leukaemia)", "test": "In vitro cytotoxicity, MTT assay, MV-4-11", "type": "cell-based", "details": "Table 5; selectivity coefficient vs normal BALB/3T3 fibroblasts"}},
  "data": [
    {"smiles": "CC[C@@H](C(=O)[C@@H](C)[C@@H](O)[C@H](C)[C@@H]1O[C@@H]([C@@H](CC)C(=O)O)CC[C@@H]1C)[C@H]1O[C@]2(C=C[C@@H](NC(=O)c3cc(OC)c(OC)c(OC)c3)[C@]3(CC[C@@](C)([C@H]4CC[C@](O)(CC)[C@H](C)O4)O3)O2)[C@H](C)C[C@@H]1C", "note": "[FLC-00573-1•Na]", "values": [
      {"measurement": "SI A2780Cis", "setting": "[1]; selectivity coefficient vs normal BALB/3T3 fibroblasts", "value": 38.7},
      {"measurement": "IC50", "setting": "[1]; read-out: IC50 (nM) A2780Cis, A2780Cis cisplatin-resistant human ovarian cancer cells", "value": 48.7, "unit": "nM"},
      {"measurement": "SI NCI-H1581", "setting": "[2]", "value": 63.2},
      {"measurement": "SI MV4-11", "setting": "[3]", "value": 11.9}
    ]}
  ]
}
